## Measured affinities in a library of Ab-14 heavy chain variants

Source: Li et al. 2023 (doi:10.1038/s41467-023-39022-2), MIT Lincoln Laboratory and A-Alpha Bio; data file from the FLAb repository.

Target peptide (SARS-CoV-2 spike, HR2 region): PDVDLGDISGINAS

Parent scFv Ab-14: VH joined to VL by a 15-residue (Gly4Ser)3 linker. Changes lie in the heavy chain CDRs alone.
VH: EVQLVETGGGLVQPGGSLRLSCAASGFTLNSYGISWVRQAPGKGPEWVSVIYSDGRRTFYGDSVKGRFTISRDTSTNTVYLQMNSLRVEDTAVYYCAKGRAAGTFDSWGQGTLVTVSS
VL: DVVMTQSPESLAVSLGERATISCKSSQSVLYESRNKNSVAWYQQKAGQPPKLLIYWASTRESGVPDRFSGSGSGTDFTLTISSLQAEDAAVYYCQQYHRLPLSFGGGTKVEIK

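Phage display of a naive human antibody library on the peptide gave the parent. These sequences belong to a second round, designed from the earlier measurements on random variants of the parent. Group labels follow the data file (Rand: our label for a block that the file lists under HC and that is probably the random mutants of the ten best first-round binders; En: ensemble of fine-tuned language models; HC: hill climbing; Gen: genetic algorithm; Gibbs: Gibbs sampling; a sequence that several methods proposed may carry one label only). Affinity was read by AlphaSeq, a pooled yeast mating assay with surface-displayed partners. Binding brings cells together so that they mate, and sequencing counts the barcode pairs among the diploids. Each replicate has its own calibration line, from reference interactions of the BCL2 family. Each pool was mated in six replicate cultures.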

The parent's heavy chain CDRs are GFTLNSYGIS, VIYSDGRRTFYGDSVK, GRAAGTFDS; each variant's own CDRs replace them letter for letter. This list holds designs with more than six substitutions. Values are apparent Kd, the geometric mean of the replicates that gave a signal; lower means stronger binding. Where no diploid with the target was found in any replicate, the entry reads "no signal": below detection, most likely a poor binder, though not proof of it. Values of this round are not directly comparable with the first-round values of the same sequences. Background: pairings of all heavy chain designs with three empty control strains gave a value in 1% of cases (median 120 nM, 5th percentile 7.0 nM). Values in that range, when seen in few replicates, are hard to tell from nonspecific mating. Of ten entries with the parent sequence, four were seen in most replicates (averages 2.2 nM to 240 nM), three in one and three in none, so single entries are noisy. The authors averaged sequences with at least three values out of six and counted those with two or fewer as poor binders.

CDR-H1,CDR-H2,CDR-H3,group,Kd,seen in
GFDLNEYGIS,VIYADGKRTAYADSVK,GETAGTFVQ,En_Gen,840 pM,6 of 6
GFDLNEYGIS,VIYADGQRTFYIDSVK,GENAGTFDV,En_HC,900 pM,6 of 6
GFDLDEYGIS,VIYADGMRTAYQQKVK,GQETDTNVV,En_Gibbs,no signal,0 of 6
GFDLNEYGIS,VIYADGRRTFYTDSVK,GTSAGTFDV,En_HC,380 pM,3 of 6
GFDLNEYGIS,VIYADGKRTFYADSVK,GENAGTFDI,En_Gen,880 pM,6 of 6
GFGLDEYGIS,VIYADGRRTFYADSVK,GENAGTFDL,En_HC,200 pM,6 of 6
GFDLNEYGIS,VIYADGMRTAYADDVK,GENGGTFDV,En_Gen,700 pM,6 of 6
GFDLNEYGIS,VIYADGFRTFYTDSVK,GEVAGTFDS,En_HC,230 pM,6 of 6
GMDIEDYGIS,VIYADGKRKAYAQKFK,GHIGGTFGD,En_Gibbs,no signal,0 of 6
GFDLNEYGIS,VIYADGRRTAYADSVK,GQLAGTFDS,En_HC,130 pM,6 of 6
GFDLNEYGIS,VIYADGKRYHYQDSVK,GGVVGKVLY,En_Gibbs,no signal,0 of 6
GFDLEEYGIS,VIYADGRRTFYSDSVK,GEVAGTFDS,En_HC,160 pM,6 of 6
GFDLNEYGIS,VIYADGRRTFYTDSVK,GEFAGTFDA,En_HC,2.7 nM,2 of 6
GFDLEEYGIS,VIYADGMRTFYSDSVK,GEAAGTFDV,En_HC,1.3 nM,6 of 6
GFDLQEYGVS,VIYADGARKSYTNSVK,GVVGGGMDV,En_Gibbs,no signal,0 of 6
GFSLDEYGIS,VIYADGMRARYSDAVK,GVKVGNVIM,En_Gibbs,no signal,0 of 6
GFDLDEYGIS,VIYADGKRTAYSDSVK,GENAGTFDL,En_Gen,640 pM,6 of 6
GFDLDEYGIS,VIYADGMRTAYSDSVK,GNEAGTFDM,En_Gen,600 pM,6 of 6
GFDLNEYGIS,VIYADGRRTAYIDSVK,GNAAGTFDV,En_HC,2.6 µM,1 of 6
GFDLNEYGIS,VIYADGMRQAYADDVK,GNVAGTFDV,En_Gen,660 pM,6 of 6
GFDLNEYGIS,VIYADGRRTAYADSVK,GETAGTFDL,En_Gen,25 nM,5 of 6
GFDLNEYGIS,VIYADGSRTAYSDSVK,GQNAGTFDV,En_Gen,3.1 nM,6 of 6
GFDLDEYGIS,VIYADGRRTAYSDSVK,GENAGTFDT,En_Gen,320 pM,6 of 6
GFDLNEYGIS,VIYADGHRTFYSDSVK,GQSAGTFDI,En_HC,720 pM,6 of 6
GFDLNEYGIS,VIYADGRRTAYSDSVK,GEAAGFFDI,En_HC,2.8 nM,6 of 6
GFDLDEYGIS,VIYADGQRTAYTDSVK,GNVAGTFDV,En_Gen,3.7 nM,6 of 6
GFDLDEYGIS,VIYADGMRTAYADSVK,GEVAGTFDT,En_Gen,260 pM,6 of 6
GFDLNEYGIS,VIYADGVRTAYADSVK,GQLAGTFDT,En_HC,200 pM,6 of 6
GFDLNEYGIS,VIYADGSRTFYSDSVK,GNQAGTFDF,En_HC,3.8 nM,6 of 6
GFDLNSYGYS,VIYSDGRRTFYGDVRK,GVAAGWFNS,Rand,no signal,0 of 6
GFDLNEYGIS,VIYADGQRTAYTDSVK,GHAAGTFDL,En_HC,2.3 nM,6 of 6
GFDLNEYGIS,VIYADGVRTFYADSVK,GNVAGTFDL,En_Gen,380 pM,6 of 6
GFDLNEYGIS,VIYADGMRTYYADDVK,GNNAGTFDL,En_Gen,460 pM,6 of 6
GFDLNEYGIS,VIYADGQRTFYADSVK,GQNAGTFTL,En_HC,1.7 nM,6 of 6
GQNLDEYGIS,VIYADGMRKWYADDVK,GNMSAGVIT,En_Gibbs,no signal,0 of 6
GYDIQDYGIS,VIYADGVRTVYHDSVK,GQLAGSFIT,En_Gibbs,4.5 nM,6 of 6
GFDLNEYGIS,VIYADGRRTAYVDSVK,GGNAGTFDV,En_Gen,1.3 nM,6 of 6
GEDLNEYGVS,VIYADGIRSTYADSFK,GKVGAAFFQ,En_Gibbs,no signal,0 of 6
GFDLDEYGIS,VIYADGMRTAYADDVK,GGNAGTFDV,En_Gen,520 pM,6 of 6
GFNLNEYGIS,VIYADGQRTSYTDQVK,GVETGAVLE,En_Gibbs,no signal,0 of 6
GFDIGEYGIS,VIYADGRRKAYSDAVK,GIHVYGKTV,En_Gibbs,no signal,0 of 6
GFNLEDYGIS,VIYADGIRMSYAEAVK,GQNSGVIVN,En_Gibbs,no signal,0 of 6
GFELDEYGIS,VIYADGKRKAYDQAVK,GKTGGVILD,En_Gibbs,1.2 nM,1 of 6
GFDLDEYGIS,VIYADGMRTAYADDVK,GEVAGTFDT,En_Gen,550 pM,6 of 6
GFDLNEYGIS,VIYADGMRTAYTDSVK,GETAGTFDV,En_Gen,770 pM,6 of 6
GNDIEEYGIS,VIYADGQRVNAASQVK,GKQAGTFNL,En_Gibbs,no signal,0 of 6
GFDLNEYGIS,VIYADGKRTFYTDSVK,GANAGTFDQ,En_HC,300 pM,6 of 6
GFDLNEYGIS,VIYADGKKTAFVNTVK,GESGGNIDD,En_Gibbs,no signal,0 of 6
GFDLNEYGIS,VIYADGMRTAYIDSVK,GNVAGTFDV,En_Gen,210 pM,6 of 6
GFDLNEYGIS,VIYADGMRVSYTNTVK,GGNSMISAT,En_Gibbs,no signal,0 of 6
GFDLNEYGIS,VIYADGRRTYYADSVK,GNNAGTFDI,En_Gen,2.3 nM,6 of 6
GFDLSEYGIS,VIYADGQRANYVSNVK,GEQAGGFVL,En_Gibbs,no signal,0 of 6
GFDLNEYGIS,VIYADGRRTFYHDSVK,GQIAGTFDQ,En_HC,120 pM,6 of 6
GFDLNEYGVS,VIYADGIRTAYADSFK,GNVGVALFQ,En_Gibbs,no signal,0 of 6
GFDLEEYGIS,VIYADGRRTAYADDVK,GNVAGTFDV,En_Gen,280 pM,6 of 6
GFDLNEYGIS,VIYADGMRTAYTDDVK,GEVAGTFDV,En_Gen,630 pM,6 of 6
GFDINEYGIS,VIYADGRRTAYADSVK,GEAAGTFDI,En_HC,500 pM,6 of 6
GFDLNEYGIS,VIYADGMRTAYADDVK,GQVAGTFDL,En_Gen,790 pM,6 of 6
GFDLNSYIIS,VIYSDGRRTFWGDSVK,GRCARWFNS,Rand,no signal,0 of 6
GFDLDEYGIS,VIYADGMRTAYSDSVK,GNTAGTFDQ,En_Gen,330 pM,6 of 6
GFDIDEYGIS,VIYADGKRTFYADSVK,GTNAGTFDS,En_HC,370 pM,6 of 6
GNDLSEYGIS,VIYADGIRTNYSQNVK,GTLGDTFTQ,En_Gibbs,no signal,0 of 6
GFDLNEYGIS,VIYADGRRTFYADNVK,GEVAGTFDV,En_HC,320 pM,6 of 6
GFTLNDKWWS,VIISDGRRTQYIDSVK,GRAAGTFDS,Rand,no signal,0 of 6
GFKLNEYGIS,VIYADGQRKSYADSFK,GTHAGMVFE,En_Gibbs,no signal,0 of 6
GDSLNEYGIS,VIYADGFRAAYTDKVK,GVTVGNFSS,En_Gibbs,no signal,0 of 6
GFNIDEYGIS,VIYADGFRAVYTDSVK,GHNGMRLTV,En_Gibbs,no signal,0 of 6
GFDLNEYGIS,VIYADGMRTAYTDSVK,GEVAGTFDQ,En_Gen,260 pM,6 of 6
GFDLNEYGIS,VIYADGMRTAYADSVK,GNVAGTFTV,En_Gen,260 pM,6 of 6
GVDIDEYGIS,VIYADGIRTFYIDKVK,GNVGGQFDT,En_Gibbs,43 nM,6 of 6
GFDLEEYGVS,VIYADGQRFAYAQDFK,GEAAGAFAL,En_Gibbs,21 nM,1 of 6
GFDLNEYGIS,VIYADGRRTAYADSVK,GEVAGTFDL,En_Gen,640 pM,6 of 6
GFDLNEYGIS,VIYADGMRKFYADKVK,GENAGTFDV,En_HC,260 pM,6 of 6

The 12 strongest on average among those seen in every replicate, once more:

{"CDR-H1": "GFDLNEYGIS", "CDR-H2": "VIYADGRRTFYHDSVK", "CDR-H3": "GQIAGTFDQ", "group": "En_HC", "Kd": "120 pM", "seen in": "6 of 6"}
{"CDR-H1": "GFDLNEYGIS", "CDR-H2": "VIYADGRRTAYADSVK", "CDR-H3": "GQLAGTFDS", "group": "En_HC", "Kd": "130 pM", "seen in": "6 of 6"}
{"CDR-H1": "GFDLEEYGIS", "CDR-H2": "VIYADGRRTFYSDSVK", "CDR-H3": "GEVAGTFDS", "group": "En_HC", "Kd": "160 pM", "seen in": "6 of 6"}
{"CDR-H1": "GFDLNEYGIS", "CDR-H2": "VIYADGVRTAYADSVK", "CDR-H3": "GQLAGTFDT", "group": "En_HC", "Kd": "200 pM", "seen in": "6 of 6"}
{"CDR-H1": "GFGLDEYGIS", "CDR-H2": "VIYADGRRTFYADSVK", "CDR-H3": "GENAGTFDL", "group": "En_HC", "Kd": "200 pM", "seen in": "6 of 6"}
{"CDR-H1": "GFDLNEYGIS", "CDR-H2": "VIYADGMRTAYIDSVK", "CDR-H3": "GNVAGTFDV", "group": "En_Gen", "Kd": "210 pM", "seen in": "6 of 6"}
{"CDR-H1": "GFDLNEYGIS", "CDR-H2": "VIYADGFRTFYTDSVK", "CDR-H3": "GEVAGTFDS", "group": "En_HC", "Kd": "230 pM", "seen in": "6 of 6"}
{"CDR-H1": "GFDLDEYGIS", "CDR-H2": "VIYADGMRTAYADSVK", "CDR-H3": "GEVAGTFDT", "group": "En_Gen", "Kd": "260 pM", "seen in": "6 of 6"}
{"CDR-H1": "GFDLNEYGIS", "CDR-H2": "VIYADGMRTAYTDSVK", "CDR-H3": "GEVAGTFDQ", "group": "En_Gen", "Kd": "260 pM", "seen in": "6 of 6"}
{"CDR-H1": "GFDLNEYGIS", "CDR-H2": "VIYADGMRTAYADSVK", "CDR-H3": "GNVAGTFTV", "group": "En_Gen", "Kd": "260 pM", "seen in": "6 of 6"}
{"CDR-H1": "GFDLNEYGIS", "CDR-H2": "VIYADGMRKFYADKVK", "CDR-H3": "GENAGTFDV", "group": "En_HC", "Kd": "260 pM", "seen in": "6 of 6"}
{"CDR-H1": "GFDLEEYGIS", "CDR-H2": "VIYADGRRTAYADDVK", "CDR-H3": "GNVAGTFDV", "group": "En_Gen", "Kd": "280 pM", "seen in": "6 of 6"}